Assay results: patent publication EP1852441B1, “Agents that modulate EPH receptor activity” (The Burnham Institute, priority 2002, dated 2004)

Sequences of proteins named here, by UniProt entry; tags and fusion partners are left off. Residues count along the entry.
UniProt P54764, 20-547 limits assumed, species assumed: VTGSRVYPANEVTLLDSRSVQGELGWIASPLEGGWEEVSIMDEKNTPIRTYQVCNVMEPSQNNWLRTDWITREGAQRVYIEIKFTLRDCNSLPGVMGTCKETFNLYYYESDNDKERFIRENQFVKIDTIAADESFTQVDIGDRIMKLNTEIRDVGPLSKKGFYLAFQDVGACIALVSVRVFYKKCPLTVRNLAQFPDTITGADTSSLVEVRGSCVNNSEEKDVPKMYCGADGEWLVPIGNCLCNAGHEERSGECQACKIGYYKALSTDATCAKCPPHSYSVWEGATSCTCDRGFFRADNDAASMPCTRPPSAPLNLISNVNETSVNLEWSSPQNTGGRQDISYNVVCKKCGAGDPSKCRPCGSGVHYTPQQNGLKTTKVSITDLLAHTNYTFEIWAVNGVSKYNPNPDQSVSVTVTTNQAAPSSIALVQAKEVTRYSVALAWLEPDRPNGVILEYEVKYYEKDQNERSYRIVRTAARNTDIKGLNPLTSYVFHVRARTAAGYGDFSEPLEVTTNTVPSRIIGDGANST

Key:
[1] = biological target: T1, EphA4 (Homo sapiens, UniProt P54764); assay: inhibition of ephrin-AP fusion protein binding to immobilized Eph receptor Fc; details: EphA2-binding peptides; ephrin-A5-AP and ephrin-A6-AP
T1 construct: immobilized EphA4 receptor extracellular domain fused to n human Fc region

[2] = tested on: EphA receptors; assay: immobilized biotinylated synthetic peptide captures Eph receptor Fc fusion proteins, EphA panel; format: binding; details: biotinylated peptide on streptavidin-coated wells
Description: In this example, immobilized SWL and YSA peptides were used to capture Fc fusion proteins of various EphA receptors. Biotinylated peptides were captured on streptavidin-coated microtiter plates (Pierce, Rockford, IL) and incubated with Eph receptor Fc fusion protein. Bound Eph receptors were detected with anti-human Fc antibody conjugated to alkaline phosphatase (AP) (Promega, Madison, WI). Alternatively, the immobilized biotinylated peptides were incubated with diluted cell culture supernatants containing EphA2-AP. Substrates were 2,2'-azino-bis(3-ethylbenzthiazoline-6-sulfonic acid) for horseradish peroxidase and p-nitrophenyl phosphate for AP. Absorbance at 405 or 450 nm was measured using an ELISA plate reader.

Compound | inhibition of binding of A-ephrins to immobilized EphA4 [1] | binding of immobilized synthetic peptide to other EphA receptors [2]
CC(C)C[C@H](NC(=O)[C@H](Cc1c[nH]c2ccccc12)NC(=O)[C@@H](N)CO)C(=O)N[C@@H](C)C(=O)N[C@@H](Cc1ccc(O)cc1)C(=O)N1CCC[C@H]1C(=O)NCC(=O)N[C@@H](C)C(=O)N[C@H](C(=O)N[C@@H](CO)C(=O)N[C@@H](Cc1ccc(O)cc1)C(=O)N[C@@H](CCCNC(=N)N)C(=O)NCC(=O)N[C@@H](CO)C(=O)NCC(=O)N[C@@H](CO)C(=O)N[C@@H](CCCCNC(=O)CCCC[C@@H]1SC[C@@H]2NC(=O)N[C@@H]21)C(=O)O)C(C)C [SWL peptide] | not EphA4 | 
A3 peptide: Twelve-mer synthetic peptide corresponding to the G-H loop of ephrin A3 (YSAFSLGYEFHA) |  | bind promiscuously to all EphA receptors
A5 peptide: synthetic peptide corresponding to the A-A' β-strand of ephrin-A5 (KAVADRYAVYW) |  | bind promiscuously to all EphA receptors
